Data reported in patent US20240400715A1 (VIBRANT PHARMA, published 2024).

Amino acid sequences for entries named in this document (tags omitted). Chains listed by the source or under a name are the forms on record and can include a tag or linker. Residues count along the entry.
keyhole limpet haemocyanin (KLH, Sigma, H8283), UniProt Q10584, 20-3421 limits assumed, form in doubt, chain 2 of 2: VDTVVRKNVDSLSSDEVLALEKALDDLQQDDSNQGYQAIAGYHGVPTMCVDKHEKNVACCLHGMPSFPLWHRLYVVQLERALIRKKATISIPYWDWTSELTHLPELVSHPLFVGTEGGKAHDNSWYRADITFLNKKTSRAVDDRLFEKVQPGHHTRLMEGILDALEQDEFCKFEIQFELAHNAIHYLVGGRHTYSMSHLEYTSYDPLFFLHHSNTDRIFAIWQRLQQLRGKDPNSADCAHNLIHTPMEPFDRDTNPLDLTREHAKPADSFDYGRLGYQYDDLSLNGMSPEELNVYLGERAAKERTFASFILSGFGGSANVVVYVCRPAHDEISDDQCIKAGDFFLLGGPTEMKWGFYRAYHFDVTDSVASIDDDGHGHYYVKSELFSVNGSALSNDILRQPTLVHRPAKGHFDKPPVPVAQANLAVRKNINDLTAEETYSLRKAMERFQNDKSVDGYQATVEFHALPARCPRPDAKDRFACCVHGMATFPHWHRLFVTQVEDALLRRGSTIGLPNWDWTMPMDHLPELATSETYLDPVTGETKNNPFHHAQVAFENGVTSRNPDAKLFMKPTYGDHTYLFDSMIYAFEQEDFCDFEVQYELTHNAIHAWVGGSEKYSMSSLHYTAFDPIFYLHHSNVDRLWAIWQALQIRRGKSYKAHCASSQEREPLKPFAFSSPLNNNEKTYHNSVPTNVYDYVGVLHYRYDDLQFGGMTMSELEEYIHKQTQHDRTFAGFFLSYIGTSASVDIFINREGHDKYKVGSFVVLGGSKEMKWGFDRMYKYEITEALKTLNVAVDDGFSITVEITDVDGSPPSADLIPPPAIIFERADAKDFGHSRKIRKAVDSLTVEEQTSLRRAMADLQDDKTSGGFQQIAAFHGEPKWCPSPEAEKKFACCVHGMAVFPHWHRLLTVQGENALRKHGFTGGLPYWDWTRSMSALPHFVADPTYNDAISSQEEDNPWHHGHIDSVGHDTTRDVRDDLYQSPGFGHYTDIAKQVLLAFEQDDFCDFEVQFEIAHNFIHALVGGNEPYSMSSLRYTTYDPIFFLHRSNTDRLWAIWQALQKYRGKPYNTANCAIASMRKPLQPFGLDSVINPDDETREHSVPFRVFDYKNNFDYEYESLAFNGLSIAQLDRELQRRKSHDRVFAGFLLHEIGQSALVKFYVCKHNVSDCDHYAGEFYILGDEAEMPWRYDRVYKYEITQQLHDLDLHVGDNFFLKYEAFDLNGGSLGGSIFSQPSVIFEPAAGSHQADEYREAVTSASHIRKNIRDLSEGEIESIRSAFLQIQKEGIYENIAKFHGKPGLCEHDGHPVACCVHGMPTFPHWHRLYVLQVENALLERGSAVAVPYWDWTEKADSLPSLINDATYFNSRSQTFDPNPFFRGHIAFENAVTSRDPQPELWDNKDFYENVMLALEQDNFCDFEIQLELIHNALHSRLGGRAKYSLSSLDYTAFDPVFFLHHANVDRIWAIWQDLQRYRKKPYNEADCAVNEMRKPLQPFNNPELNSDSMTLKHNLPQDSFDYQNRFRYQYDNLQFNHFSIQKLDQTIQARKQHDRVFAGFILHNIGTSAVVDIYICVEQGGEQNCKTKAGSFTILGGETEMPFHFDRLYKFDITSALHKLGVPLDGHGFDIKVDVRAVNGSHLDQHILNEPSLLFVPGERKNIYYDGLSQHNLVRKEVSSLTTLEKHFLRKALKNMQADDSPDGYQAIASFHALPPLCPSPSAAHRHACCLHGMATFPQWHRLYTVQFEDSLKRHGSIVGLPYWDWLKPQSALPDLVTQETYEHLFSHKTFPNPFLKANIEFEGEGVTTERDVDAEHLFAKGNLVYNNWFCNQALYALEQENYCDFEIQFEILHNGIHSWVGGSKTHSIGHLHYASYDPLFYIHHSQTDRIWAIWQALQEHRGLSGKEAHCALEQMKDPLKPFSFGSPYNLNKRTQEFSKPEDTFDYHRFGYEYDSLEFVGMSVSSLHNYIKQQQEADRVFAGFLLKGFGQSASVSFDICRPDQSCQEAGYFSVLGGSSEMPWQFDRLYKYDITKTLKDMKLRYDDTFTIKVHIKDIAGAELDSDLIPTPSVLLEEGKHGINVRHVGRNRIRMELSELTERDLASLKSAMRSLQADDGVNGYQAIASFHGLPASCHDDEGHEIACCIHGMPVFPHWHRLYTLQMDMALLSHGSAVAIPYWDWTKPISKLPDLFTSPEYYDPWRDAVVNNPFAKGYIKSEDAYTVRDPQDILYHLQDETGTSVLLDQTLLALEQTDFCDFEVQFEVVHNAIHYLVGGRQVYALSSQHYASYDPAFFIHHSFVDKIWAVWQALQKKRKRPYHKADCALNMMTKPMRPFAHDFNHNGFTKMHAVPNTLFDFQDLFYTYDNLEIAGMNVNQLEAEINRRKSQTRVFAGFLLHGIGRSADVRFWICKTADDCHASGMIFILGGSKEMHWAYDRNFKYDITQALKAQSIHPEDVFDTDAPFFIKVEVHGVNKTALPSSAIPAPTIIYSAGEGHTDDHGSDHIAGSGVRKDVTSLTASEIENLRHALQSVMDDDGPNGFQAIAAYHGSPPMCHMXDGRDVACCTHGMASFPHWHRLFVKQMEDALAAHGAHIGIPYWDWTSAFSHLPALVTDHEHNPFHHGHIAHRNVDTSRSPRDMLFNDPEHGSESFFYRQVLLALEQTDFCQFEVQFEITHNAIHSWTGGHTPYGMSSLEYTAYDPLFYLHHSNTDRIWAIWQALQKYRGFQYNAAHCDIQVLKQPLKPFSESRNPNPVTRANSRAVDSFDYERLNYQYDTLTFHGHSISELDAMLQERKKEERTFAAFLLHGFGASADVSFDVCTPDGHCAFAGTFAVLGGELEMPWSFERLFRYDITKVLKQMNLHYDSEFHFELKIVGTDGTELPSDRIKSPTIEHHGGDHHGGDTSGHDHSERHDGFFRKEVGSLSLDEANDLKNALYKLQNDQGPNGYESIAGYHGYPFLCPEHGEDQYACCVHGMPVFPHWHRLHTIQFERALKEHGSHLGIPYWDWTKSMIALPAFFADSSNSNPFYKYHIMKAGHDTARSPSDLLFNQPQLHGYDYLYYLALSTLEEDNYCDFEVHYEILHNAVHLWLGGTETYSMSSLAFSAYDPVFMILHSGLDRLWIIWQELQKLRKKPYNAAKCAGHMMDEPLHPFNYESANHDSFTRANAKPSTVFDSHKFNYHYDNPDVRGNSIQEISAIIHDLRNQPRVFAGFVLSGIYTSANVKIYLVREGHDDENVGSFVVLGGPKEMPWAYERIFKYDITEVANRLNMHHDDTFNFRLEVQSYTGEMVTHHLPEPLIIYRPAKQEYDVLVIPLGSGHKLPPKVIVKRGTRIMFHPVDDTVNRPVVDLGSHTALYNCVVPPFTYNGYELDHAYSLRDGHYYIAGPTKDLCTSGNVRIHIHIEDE

Biological target: T1, keyhole limpet haemocyanin (KLH, Sigma, H8283) (keyhole limpet, UniProt Q10583 17-3414; Q10584 20-3421, limits assumed)
T1 construct: Bought preparation coated on the plate in the polyspecificity ELISA
Assay: ELISA, KLH coated at 5 ug/mL, 100 nM antibody, anti-human IgG-HRP

- Absorbance value (450 nm, polyspecificity ELISA): 1.63
B1: Ofatumumab (antibody, V domains shown)
VH: EVQLVESGGGLVQPGRSLRLSCAASGFTFNDYAMHWVRQAPGKGLEWVSTISWNSGSIGYADSVKGRFTISRDNAKKSLYLQMNSLRAEDTALYYCAKDIQYGNYYYGMDVWGQGTTVTVSS
VL: EIVLTQSPATLSLSPGERATLSCRASQSVSSYLAWYQQKPGQAPRLLIYDASNRATGIPARFSGSGSGTDFTLTISSLEPEDFAVYYCQQRSNWPITFGQGTRLEIK
